# Assay results taken from US12077495B2 (priority 2018, dated 2024).
# Test system: proton-coupled transporters (MCTs) endogenously present in tsA201 cells
# Test: MCT-mediated uptake in tsA201 cells (BCECF pH-sensitive dye)
# Assay type: cell-based
# Settings: 2 min, read-out: EC50, concentration-dependent decrease in intracellular pH
smiles,measurement,value
"O=C(O)/C=C1\CCCc2cc(-c3ccccc3)ccc2C1O (stereo not shown) [Compound 2, (E)-2-(5-hydroxy-2-phenyl-5,7,8,9-tetrahydro-6H-benzo[7]annulen-6-ylidene)acetic acid]",EC50,1600 µM
